Only a part is listed here, and it is no random draw. Activity calls are given as the source filed them.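 Rule for the calls: active = at least 50% inhibition at 5 µM, scaled per plate between neutral and stimulator controls; inactive = the rest.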
assay: NF-kB reporter blockers in CF airway cells – cell-based, GFP fluorescence, uHTS, primary screen (AID 588850); conditions: KKLEB NF-kB-GFP reporter, PAF-induced, GFP fluorescence overnight; at 5 µM; hits give high values;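 note: PAF is a Pseudomonas aeruginosa culture filtrate used as stimulus; plate controls were PAF-stimulated DMSO wells for no effect and unstimulated DMSO wells for full effect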

SMILES | inhibition
CC(C)(C)C(=O)NC(Sc1ncccn1)C(Cl)(Cl)Cl (configuration not stated) | inactive: -16.6%
O=P1(N(CCCl)CCCl)NCCC(C(F)(F)F)O1 (configuration not stated) | inactive: 14.2%
Clc1n[nH]nc1-c1nn[nH][15n]1 | inactive: -5.8%
CCOP(=O)(Nc1ccc(C)cn1)OCC | inactive: 8.8%
CN(CCCl)Cc1cc(Cl)c(NC2=NCCN2)c(Cl)c1 | inactive: -8.5%
CCOP(=O)(NC(=NC(C)c1ccccc1)NC(C)c1ccccc1)OCC (configuration not stated) | inactive: 2.6%
O=P1(Nc2ccccn2)COc2ccccc2OC1 | inactive: 5%
CCC1=CC2Cc3nc4ccc(Cl)cc4c(N)c3C(C1)C2 (configuration not stated) | inactive: 30.8%
CC1(CBr)Cn2c(nc3ccccc3c2=O)S1 (configuration not stated) | inactive: 6.3%
CC(C)/C=N\N=C(\N)N[N+](=O)[O-] | inactive: 1.4%
CN(C(=O)Cc1ccc(Cl)c(Cl)c1)[C@@H]1CCCC[C@H]1N1CCCC1 | inactive: 6.8%
COc1ccccc1CNC(=O)COC(=O)C(O)(c1ccccc1)c1ccccc1 | inactive: 14.8%
CCCC1OP(=O)(Nc2ccccc2)OCC1CC (configuration not stated) | inactive: -4.8%
O=C(/C=C/c1ccccc1)OC1CN2CCC1CC2 (configuration not stated) | inactive: 7.8%
CN(C)C1(CNC(=O)c2ccc(S(C)(=O)=O)cc2)CCCCC1 | inactive: -0.5%
CC1CCC(C(C)C)C(OP(=O)(Nc2ccccn2)c2ccccc2)C1 (configuration not stated) | inactive: 7.4%
Cc1ccc(C(=O)OC2CN3CCC2CC3)cc1 (configuration not stated) | inactive: -3.1%
Cc1nn(-c2ccccc2)c2c1P(=O)(N1CCOCC1)N(C)C(c1ccccc1)=N2 (configuration not stated) | inactive: 11.2%
O=[As](O)(c1cccs1)c1cccs1 | inactive: -25.6%
Cc1ccc(OCC(=O)OC2CN3CCC2CC3)cc1 (configuration not stated) | inactive: -3.6%
O=P1(Nc2ccc(Br)cn2)COc2ccccc2OC1 | inactive: -17.9%
NS(=O)(=O)c1cccc(NC(=O)COC(=O)C(O)(c2ccccc2)c2ccccc2)c1 | inactive: 13.5%
Nc1cccc([As](=O)(O)c2ccccc2)c1 | inactive: 2.3%
O=P1(Nc2ncccn2)COc2ccccc2OC1 | inactive: 14.3%
Cc1ccc(S(=O)(=O)N(CCCN)CCCc2c(C)nc(N)[nH]c2=O)cc1 | inactive: -17.2%
Nc1ccccc1[As](=O)(O)c1ccccc1 | inactive: 13.8%

SMILES | inhibition
O=C(O)COc1ccc([As](=O)(O)O)cc1[N+](=O)[O-] | inactive: -1.2%
CS(=O)(=O)c1cc([N+](=O)[O-])c2no[n+]([O-])c2c1 | inactive: -22.2%
O=P(Nc1nccs1)(Oc1ccccc1)Oc1ccccc1 | inactive: 5%
O=P(Nc1nccs1)(c1ccccc1)c1nc2ccccc2s1 (configuration not stated) | inactive: 7.5%
CCOP1(=S)c2c(C)nn(CCC#N)c2N=C(c2ccccc2F)N1C (configuration not stated) | inactive: 15.5%
CN(C(=O)Cc1ccc(Cl)c(Cl)c1)[C@H]1CC[C@@]2(CCCO2)C[C@@H]1N1CCCC1 | inactive: -1.7%
O=[N+]([O-])c1ccc2c(c1)nnn2O | inactive: -4.1%
CN(C)C(=O)c1cc([N+](=O)[O-])cc2c1-c1c(cc([N+](=O)[O-])cc1[N+](=O)[O-])C2=O | active: 52.7%
CN(C(=O)Cc1ccccc1)[C@@H]1CC[C@]2(CCCO2)C[C@H]1N1CCCC1 | inactive: 10.5%
CCOP1(=S)c2c(C)nn(CCC#N)c2N=C(c2ccc(F)cc2)N1C (configuration not stated) | inactive: 24.9%
N#CCCN(C(=O)COC(=O)C(O)(c1ccccc1)c1ccccc1)c1ccc(F)cc1 | inactive: -0.2%
NC(=O)Nc1ccc([As](=O)(O)O)cc1 | inactive: -19.3%
Cc1cccc(OCC(=O)OC2CN3CCC2CC3)c1 (configuration not stated) | inactive: 2.6%
O=[As](O)(c1cccc(O)c1)c1cccc(O)c1 | inactive: 5.3%
CS(=O)(=O)c1ccc(Cl)c(NC(=O)COC(=O)C(O)(c2ccccc2)c2ccccc2)c1 | inactive: -10.6%
O=[As](O)(O)c1cccnc1 | inactive: -0.9%
COc1cc(C(=O)NCC2(N3CCOCC3)CCCCC2)cc(Cl)c1OC(C)C | inactive: -17.6%
O=C(OC1CN2CCC1CC2)c1ccc(Cl)cc1 (configuration not stated) | inactive: -7.1%
CCOP(=O)(Nc1cccc2ccccc12)OCC | inactive: -0.1%
COc1cc(C2NCCC3(OCCO3)C2(C)C)cc(OC)c1OC (configuration not stated) | inactive: -1.1%
CCCOP(=S)(Nc1nc(N)cc(=O)[nH]1)OCCC | inactive: 8.7%
Nc1cccc2c([As](=O)(O)O)cccc12 | inactive: 5.4%
Cc1ccc(NCCc2c([N+](=O)[O-])cc([N+](=O)[O-])cc2[N+](=O)[O-])cc1 | inactive: -5.4%
COc1cc(I)ccc1[As](=O)(O)O | inactive: 3%
COc1ccc2nc(NP(=O)(c3ccccc3)c3ccccc3)sc2c1 | inactive: -32.1%
O=P1(N(CCCl)CCCl)Nc2ccccc2N1 | inactive: -21.2%

SMILES | inhibition
O=P1(N(CCCl)CCCl)OCCCN1CCCl (configuration not stated) | inactive: -7.6%
Cc1cc(=O)[nH]c(N[N+](=O)[O-])n1 | inactive: 12.3%
O=C(OC1CN2CCC1CC2)C12CC3CC(CC(C3)C1)C2 (configuration not stated) | inactive: 12.3%
Cc1c2c(nc3ccccc13)SC(C(Cl)Cl)C2 (configuration not stated) | inactive: 8.4%
COc1ccc(N/C(=N/P(=O)(N2CCOCC2)N2CCOCC2)N2CCOCC2)cc1 | inactive: 6%
O=[N+]([O-])c1cc(Oc2ccc([N+](=O)[O-])cc2C(F)(F)F)cc([N+](=O)[O-])c1 | inactive: -14.8%
Cc1ccc2nc3c(c(C)c2c1)CC(C(Cl)Cl)S3 (configuration not stated) | inactive: -1.9%
Cc1ccc(OP(=O)(Nc2ccc([N+](=O)[O-])cn2)Oc2ccc(C)cc2)cc1 | inactive: 12.5%
O=[N+]([O-])c1ccc(-c2cc([N+](=O)[O-])c(O)c([N+](=O)[O-])c2)cc1 | inactive: 6.5%
COc1cc(C(=O)NCC2(N3CCOCC3)CCCCC2)ccc1OCC(C)C | inactive: 17.9%
C[As](=O)(O)c1cccc(C(=O)O)c1 | inactive: 8.9%
O=[As](O)(c1ccc(O)cc1)c1ccccc1O | inactive: 3.5%
O=[N+]([O-])c1cc([N+](=O)[O-])c(-c2ccn[nH]2)s1 | inactive: 18.2%
CC(C)NC(=O)NP(=O)(Oc1ccccc1)Oc1ccccc1 | inactive: -3.9%
O=C(OC1CN2CCC1CC2)c1cccc2[nH]cnc12 (configuration not stated) | inactive: 9.8%
CCN(CC)C(=S)SC(NC=O)C(Cl)(Cl)Cl (configuration not stated) | inactive: 9%
COC(=O)C1(C)COP(=O)(N2CCCCCC2)OC1 (configuration not stated) | inactive: -10.3%
CC(C)c1ccc(OP(=O)(Nc2ccccn2)Oc2ccccc2F)cc1 (configuration not stated) | inactive: -4.7%
ClCCSc1nnc(-c2cccnc2)o1 | inactive: -23.2%
Cc1cc(SC(NC(=O)c2ccccc2)C(Cl)(Cl)Cl)nc(C(C)C)n1 (configuration not stated) | inactive: -6%
CCCCOc1ccc(C(=O)NCC2(N3CCCCC3)CCCCC2)cc1OC | inactive: -14.2%
COP(=O)(OC)N1CC1c1ccccc1 (configuration not stated) | inactive: 20.6%
CC1CCNP(=O)(N(CCCl)CCCl)O1 (configuration not stated) | inactive: -24.7%
CCOC(=O)Nc1ccc([As](=O)(O)O)c(O)c1 | inactive: -19.2%
O=C(O)C(O)c1ccc(N(CCCl)CCCl)cc1 (configuration not stated) | inactive: 3.6%
O=[N+]([O-])c1ccc(Nc2ccc(Oc3ccc([N+](=O)[O-])cc3[N+](=O)[O-])cc2)c([N+](=O)[O-])c1 | inactive: 8.6%

SMILES | inhibition
O=P(Nc1ccccn1)(c1cccc2ccccc12)c1cccc2ccccc12 | inactive: 9.8%
Cc1cc(SC(NC=O)C(Cl)(Cl)Cl)ncn1 (configuration not stated) | inactive: 12.2%
CCOC(=O)Nc1cccc([As](=O)(O)O)c1 | inactive: -13.5%
O=C(Nc1ccncc1[N+](=O)[O-])c1ccc([N+](=O)[O-])cc1[N+](=O)[O-] | inactive: 30.6%
O=C(COc1ccccc1)OC1CN2CCC1CC2 (configuration not stated) | inactive: -10%
O=C(O)C(=O)c1ccc(N(CCCl)CCCl)cc1 | inactive: -7.3%
COC(=O)C1(C)COP(=O)(N2CCCC2)OC1 (configuration not stated) | inactive: -4.2%
COP1(=S)c2c(C)nn(CCC#N)c2N=C(c2ccc(F)cc2)N1C (configuration not stated) | inactive: 15.9%
CCC(C)N(CC(C)C)C(=S)SC(NC(C)=O)C(Cl)(Cl)Cl (configuration not stated) | inactive: -11.4%
CCOC(=O)c1ccc(NC(=O)C(C)(CCl)SC)cc1 (configuration not stated) | inactive: 17.9%
CSc1ccc(Nc2c([N+](=O)[O-])cc([N+](=O)[O-])cc2[N+](=O)[O-])cc1 | active: 58.6%
O=C(OC1CN2CCC1CC2)c1cccc([N+](=O)[O-])c1 (configuration not stated) | inactive: -7.4%
O=[N+]([O-])c1cccc2n[nH]nc12 | inactive: -8.4%
CC(=O)N1C2C3N(C(C)=O)C1C1N(C(C)=O)C(C(N1C(C)=O)N3C(C)=O)N2C(C)=O | inactive: 0.6%
CCc1nc2c(n1)c1c(non1O)c1c2no[n+]1[O-] | inactive: 41.6%
O=[N+]([O-])c1cc([N+](=O)[O-])c(CCNc2ccccc2)c([N+](=O)[O-])c1 | inactive: -16%
Cc1ccc(NP(=O)(Oc2ccccc2)Oc2ccccc2)nc1 | inactive: 2.8%
COc1ccc(C2=NCC(CBr)S2)cc1 (configuration not stated) | inactive: -3.2%
CN(C)C(=O)OCCc1n(C)cc[n+]1C | inactive: 14.3%
CC(C)c1nc(Nc2ccccc2)n(P(=O)(N(C)C)N(C)C)n1 | inactive: -10.5%
CC(C)=N/N=C(\N)N[N+](=O)[O-] | inactive: -9.8%
CC1CCN(C(=O)Oc2c(Cl)cc(Cl)c3cccnc23)CC1 | inactive: -1.7%
c1cc(-c2nn[nH]n2)ccc1-c1nn[nH]n1 | inactive: -18.7%
C[N+]1=C2C=CC=CC=C2SC12C([N+](=O)[O-])=CC([N+](=O)[O-])=C[C-]2[N+](=O)[O-] (configuration not stated) | inactive: -17.9%

From PubChem BioAssay AID588850 (Sanford-Burnham Center for Chemical Genomics, 2011)
